Test system: A2780-cisR cell line
Assay: MTT cytotoxicity assay
Format: cell-based

## O=C1[O][Pt]2([NH][C@@H]3CCCC[C@H]3[NH]2)[O]C1=O [Oxaliplatin, reference compound]
Calculated from IC50 values of dose-response curves, A2780-cisR vs A2780 (FIG. 10)
  resistance factor: 5.2
Ratio of IC50 in A2780-cisR to A2780
  RF, resistance factor: 5.21

— US10239903B2, “Pt (IV) derivatives and nanocarriers comprising them” (Yissum Research Development Company of the Hebrew …, priority 2014, dated 2019)
